These results are taken from PubChem BioAssay AID588519 (ICCB-Longwood Screening Facility, Harvard Medical School, 2011).

The entries are a selection whose mix differs from that of the whole data set. Activity calls are given as the source filed them. Cut-off read from the data, not from the text of the source: active = % elongation below about 90%; inactive = the rest, inconclusive results apart.

The experiment deals with Genome polyprotein (Poliovirus type 1 (strain Mahoney)) (UniProt P03300). Kind of experiment: inhibitors of poliovirus polymerase RNA elongation – biochemical, fluorescence polarization, total intensity, primary screen (AID 588519). To be noted: stronger effect = lower value, compound at 16.7 µg/mL.
For the molecule `CN(CCCl)CCCl`, the % elongation was inactive: 102%.
